The text below walks through data of patent US9890152B2 (Genentech, Inc., priority 2012, dated 2018).

Amino acid sequences for entries named in this document (tags omitted). Residues count along the entry.
UniProt P00533, 25-1210 T790M/L858R limits assumed: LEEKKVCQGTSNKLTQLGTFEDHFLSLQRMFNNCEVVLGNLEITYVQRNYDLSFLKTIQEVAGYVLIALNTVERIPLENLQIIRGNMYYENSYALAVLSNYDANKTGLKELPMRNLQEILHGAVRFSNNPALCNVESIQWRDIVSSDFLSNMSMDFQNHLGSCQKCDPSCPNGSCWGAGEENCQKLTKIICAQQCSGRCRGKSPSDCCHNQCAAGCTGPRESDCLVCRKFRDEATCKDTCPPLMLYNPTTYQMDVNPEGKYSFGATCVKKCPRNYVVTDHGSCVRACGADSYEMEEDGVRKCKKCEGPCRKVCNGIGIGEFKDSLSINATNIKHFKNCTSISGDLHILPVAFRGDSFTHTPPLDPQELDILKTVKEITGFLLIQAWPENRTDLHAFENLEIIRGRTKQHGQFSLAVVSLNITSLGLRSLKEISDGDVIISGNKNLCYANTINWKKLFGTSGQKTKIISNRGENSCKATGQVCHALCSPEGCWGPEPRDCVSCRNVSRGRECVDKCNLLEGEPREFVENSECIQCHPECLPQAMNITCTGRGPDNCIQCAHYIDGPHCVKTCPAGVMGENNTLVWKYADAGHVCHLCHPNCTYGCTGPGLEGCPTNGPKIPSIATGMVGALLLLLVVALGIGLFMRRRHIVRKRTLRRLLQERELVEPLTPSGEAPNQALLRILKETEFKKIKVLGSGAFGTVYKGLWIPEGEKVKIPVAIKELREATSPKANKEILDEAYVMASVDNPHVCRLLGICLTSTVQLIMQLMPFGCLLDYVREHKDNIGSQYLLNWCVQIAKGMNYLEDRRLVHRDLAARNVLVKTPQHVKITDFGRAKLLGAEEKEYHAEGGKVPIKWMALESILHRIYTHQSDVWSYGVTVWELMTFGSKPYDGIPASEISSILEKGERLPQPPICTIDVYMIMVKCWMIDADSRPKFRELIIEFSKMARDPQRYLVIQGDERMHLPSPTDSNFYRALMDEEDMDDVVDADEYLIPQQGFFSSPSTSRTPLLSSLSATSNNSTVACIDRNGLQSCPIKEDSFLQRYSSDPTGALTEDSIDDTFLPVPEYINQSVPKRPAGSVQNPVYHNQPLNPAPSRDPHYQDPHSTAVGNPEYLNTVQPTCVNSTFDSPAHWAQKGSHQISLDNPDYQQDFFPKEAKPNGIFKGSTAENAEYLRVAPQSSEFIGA

This test deals with EGFR T790M L858R (Homo sapiens, UniProt P00533, L858R/T790M). The experiment in a line: biochemical. To be noted: EGFR(T790M/L858R) Ki (μM), 5 μM ATP, 30 min, room temperature; apparent Ki (Morrison) converted by Cheng-Prusoff, Km of ATP 1.3 μM.

Structures can show the parent of a compound that is named as a salt.

As to `CO[C@@H]1CCN(c2nccc(Nc3cc4c(cn3)nc(CO)n4C(C)C)n2)C[C@@H]1Cl` (racemic) [Example 634, (6-(2-((±)-(cis)-3-Chloro-4-methoxypiperidin-1-yl)pyrimidin-4-ylamino)-1-isopropyl-1H-imidazo[4,5-c]pyridin-2-yl)methanol], the Ki came to 0.00828 µM.

As for `CCC(C)n1cc(C(=O)NC2CCOCC2)c2cnc(Nc3ccnc(N4CCC(C)(O)CC4)n3)cc21` (racemic) [Example 638, 1-(sec-butyl)-6-((2-(4-hydroxy-4-methylpiperidin-1-yl)pyrimidin-4-yl)amino)-N-(tetrahydro-2H-pyran-4-yl)-1H-pyrrolo[3,2-c]pyridine-3-carboxamide], the Ki amounted to 0.00435 µM.

For the molecule `C[C@H](n1c(CO)nc2cnc(Nc3ccnc(N4CC[C@H](O)[C@H](F)C4)n3)cc21)C(C)(F)F` (racemic) [Example 644, (±)-(cis)-1-(4-(1-((S)-3,3-Difluorobutan-2-yl)-2-(hydroxymethyl)-1H-imidazo[4,5-c]pyridin-6-ylamino)pyrimidin-2-yl)-3-fluoropiperidin-4-ol], the Ki is 0.00165 µM. Consider `CC(C)n1c(CO)nc2cnc(Nc3ccnc(N4CC[C@H](O)[C@](C)(F)C4)n3)cc21` (racemic) [Example 645, (3RS,4SR)-3-Fluoro-1-(4-((2-(hydroxymethyl)-1-isopropyl-1H-imidazo[4,5-c]pyridin-6-yl)amino)pyrimidin-2-yl)-3-methylpiperidin-4-ol], for which the Ki worked out at 0.0178 µM. With `CCC(C)n1cc(C(=O)NC2CCOCC2)c2cnc(Nc3ccnc(N4C[C@@H](F)[C@@H](O)C(C)(C)C4)n3)cc21` (mixture of isomers) [Example 646, 1-sec-Butyl-6-(2-((±)-cis-5-fluoro-4-hydroxy-3,3-dimethylpiperidin-1-yl)pyrimidin-4-ylamino)-N-(tetrahydro-2H-pyran-4-yl)-1H-pyrrolo[3,2-c]pyridine-3-carboxamide], the Ki stood at 0.00232 µM. The same measure for `CO[C@@H]1CCN(c2nccc(Nc3cc4c(cn3)nc(C)n4C(C)C)n2)C[C@H]1NS(C)(=O)=O` (relative stereo) [Example 266, (trans)-N-{1-[4-(1-Isopropyl-2-methyl-1H-imidazo[4,5-c]pyridin-6-ylamino)pyrimidin-2-yl]-4-methoxypiperidin-3-yl}methanesulfonamide formate salt]: 0.275 µM; for `CO[C@@H]1CCN(c2nccc(Nc3cc4c(cn3)nc(C)n4C(C)C)n2)C[C@H]1N` (relative stereo) [Example 267, (trans)-[2-(3-Amino-4-methoxypiperidin-1-yl)pyrimidin-4-yl]-(1-isopropyl-2-methyl-1H-imidazo[4,5-c]pyridin-6-yl)amine]: 0.193 µM. The value for `COC1CCN(c2nccc(Nc3cc4c(cn3)nc(C)n4[C@@H]3CC[C@H](C#N)C3)n2)CC1` (relative stereo) [Example 350, (cis)-3-(6-((2-(4-methoxypiperidin-1-yl)pyrimidin-4-yl)amino)-2-methyl-1H-imidazo[4,5-c]pyridin-1-yl)cyclopentanecarbonitrile] was 0.269 µM; that for `COC1CCN(c2nccc(Nc3cc4c(cn3)nc(C)n4[C@H]3CC[C@H](C#N)C3)n2)CC1` (relative stereo) [Example 351, (trans)-3-(6-((2-(4-methoxypiperidin-1-yl)pyrimidin-4-yl)amino)-2-methyl-1H-imidazo[4,5-c]pyridin-1-yl)cyclopentanecarbonitrile] was 0.114 µM; that for `CC(C)n1c(CO)nc2cnc(Nc3ccnc(N4CC[C@H]([S+](C)[O-])[C@H](F)C4)n3)cc21` (relative stereo) [Example 623, {6-[2-(cis-3-Fluoro-4-methanesulfinylpiperidin-1-yl)pyrimidin-4-ylamino]-1-isopropyl-1H-imidazo[4,5-c]pyridin-2-yl}methanol] was 0.0465 µM. The value for `CCC(C)n1cnc2cnc(Nc3ccnc(N4CCC(OC)CC4)n3)cc21` (single isomer, unassigned) [Example 32, ((R) or (S) 1-sec-Butyl-1H-imidazo[4,5-c]pyridin-6-yl)-[2-(4-methoxypiperidin-1-yl)pyrimidin-4-yl]amine] was 0.0194 µM; that for `CCC(C)n1cnc2cnc(Nc3ccnc(N4CCC(OC)CC4)n3)cc21` (single isomer, unassigned) [Example 33, ((R) or (S) 1-sec-Butyl-1H-imidazo[4,5-c]pyridin-6-yl)-[2-(4-methoxypiperidin-1-yl)pyrimidin-4-yl]amine] was 0.0225 µM. Take `CC(C)n1cnc2cnc(Nc3ccnc(N4CCC5(CCOC5)C4)n3)cc21` (single isomer, unassigned) [Example 36, (R or S)—N-(2-(2-oxa-7-azaspiro[4.4]nonan-7-yl)pyrimidin-4-yl)-1-isopropyl-1H-imidazo[4,5-c]pyridin-6-amine]: the Ki was 0.323 µM. The same measure for `CC(C)n1cnc2cnc(Nc3ccnc(N4CCC5(CCOC5)C4)n3)cc21` (single isomer, unassigned) [Example 37, (R or S)—N-(2-(2-Oxa-7-azaspiro[4.4]nonan-7-yl)pyrimidin-4-yl)-1-isopropyl-1H-imidazo[4,5-c]pyridin-6-amine]: 0.183 µM; for `Cc1nc2cnc(Nc3ccnc(NC4CCS(=O)(=O)C4)n3)cc2n1C(C)C` (single isomer, unassigned) [Example 50, 3-((4-((1-Isopropyl-2-methyl-1H-imidazo[4,5-c]pyridin-6-yl)amino)pyrimidin-2-yl)amino)tetrahydrothiophene 1,1-dioxide]: 0.0314 µM; for `CC(C)n1cnc2cnc(Nc3ccnc(N4CCC5(CCCO5)C4)n3)cc21` (single isomer, unassigned) [Example 101, N-(2-(1-oxa-7-azaspiro[4.4]nonan-7-yl)pyrimidin-4-yl)-1-isopropyl-1H-imidazo[4,5-c]pyridin-6-amine]: 0.489 µM. For `CC(C)n1cnc2cnc(Nc3ccnc(N4CCC5(CCCO5)C4)n3)cc21` (single isomer, unassigned) [Example 102, N-(2-(1-oxa-7-azaspiro[4.4]nonan-7-yl)pyrimidin-4-yl)-1-isopropyl-1H-imidazo[4,5-c]pyridin-6-amine], the Ki stood at 0.255 µM. The value for `CC(C)n1cnc2cnc(Nc3ccnc(N4CCC(S(C)(=O)=O)C4)n3)cc21` (single isomer, unassigned) [Example 104, 1-isopropyl-N-(2-(3-(methylsulfonyl)pyrrolidin-1-yl)pyrimidin-4-yl)-1H-imidazo[4,5-c]pyridin-6-amine] was 0.207 µM; that for `CC(C)n1cnc2cnc(Nc3ccnc(N4CCC(S(C)(=O)=O)C4)n3)cc21` (single isomer, unassigned) [Example 105, 1-isopropyl-N-(2-(3-(methylsulfonyl)pyrrolidin-1-yl)pyrimidin-4-yl)-1H-imidazo[4,5-c]pyridin-6-amine] was 0.311 µM. The same measure for `CC(C)n1cnc2cnc(Nc3ccnc(NC4CCS(=O)(=O)C4)n3)cc21` (single isomer, unassigned) [Example 109, 3-((4-((1-isopropyl-1H-imidazo[4,5-c]pyridin-6-yl)amino)pyrimidin-2-yl)amino)tetrahydrothiophene 1,1-dioxide]: 0.637 µM; for `CCC(C)n1cc(C(=O)NC2CCOCC2)c2cnc(Nc3ccnc(N4CC[C@@H](O)[C@@H](F)C4)n3)cc21` (single isomer, unassigned) [Example 323]: 0.00115 µM.

On to `CCC(C)n1cc(C(=O)NC2CCOCC2)c2cnc(Nc3ccnc(N4CC[C@@H](O)[C@@H](F)C4)n3)cc21` (single isomer, unassigned) [Example 324], for which the Ki amounted to 0.00101 µM. The value for `CCC(C)n1cc(C(=O)NC2CCN(C3COC3)CC2)c2cnc(Nc3ccnc(N4CC[C@@H](OC)[C@@H](F)C4)n3)cc21` (single isomer, unassigned) [Example 325] was 0.00177 µM. The same measure for `CCC(C)n1cc(C(=O)NC2CCN(C3COC3)CC2)c2cnc(Nc3ccnc(N4CC[C@@H](OC)[C@@H](F)C4)n3)cc21` (single isomer, unassigned) [Example 326]: 0.00204 µM.

On to `CC[C@@H](C)n1cc(C(=O)NC2CCOCC2)c2cnc(Nc3ccnc(N4CC[C@H](OC)[C@H](F)C4)n3)cc21` (single isomer, unassigned) [Example 339], for which the Ki was 0.00108 µM. The same measure for `CC[C@H](C)n1cc(C(=O)NC2CCOCC2)c2cnc(Nc3ccnc(N4CC[C@H](OC)[C@H](F)C4)n3)cc21` (single isomer, unassigned) [Example 340]: 0.001 µM; for `CCNC(=O)c1cn(C(C)CC)c2cc(Nc3ccnc(N4CC[C@@H](O)[C@@H](F)C4)n3)ncc12` (single isomer, unassigned) [Example 370]: 0.00136 µM; for `CCC(C)n1cc(C(=O)NC2CCOCC2)c2cnc(Nc3ccnc(N4CC[C@@H](OC)[C@@H](F)C4)n3)cc21` (single isomer, unassigned) [Example 375]: 0.00107 µM. The value for `C[C@H](n1c([C@@H](C)O)nc2cnc(Nc3ccnc(N4CC[C@](C)(O)[C@H](F)C4)n3)cc21)C(F)(F)F` (single isomer, unassigned) [Example 620, (3R*,4S*)-3-Fluoro-1-{4-[2-((R)-1-hydroxyethyl)-1-((S)-2,2,2-trifluoro-1-methylethyl)-1H-imidazo[4,5-c]pyridin-6-ylamino]pyrimidin-2-yl}-4-methylpiperidin-4-ol] was 0.00413 µM. `C[C@H](n1c([C@@H](C)O)nc2cnc(Nc3ccnc(N4CC[C@@](C)(O)[C@@H](F)C4)n3)cc21)C(F)(F)F` (single isomer, unassigned) [Example 621, (3R*,4S*)-3-Fluoro-1-{4-[2-((R)-1-hydroxyethyl)-1-((S)-2,2,2-trifluoro-1-methylethyl)-1H-imidazo[4,5-c]pyridin-6-ylamino]pyrimidin-2-yl}-4-methylpiperidin-4-ol]: the Ki came to 0.00518 µM. In the case of `CC(n1cc(C(=O)NC2CCOCC2)c2cnc(Nc3ccnc(N4CC[C@@H](O)[C@@H](F)C4)n3)cc21)C(F)(F)F` (single isomer, unassigned) [Example 639], the Ki stood at 0.00227 µM.

Turning to `CC(n1cc(C(=O)NC2CCOCC2)c2cnc(Nc3ccnc(N4CC[C@@H](O)[C@@H](F)C4)n3)cc21)C(F)(F)F` (single isomer, unassigned) [Example 640], the Ki was 0.00323 µM.
